For the assay, the target named is T1, MMP-1 (Homo sapiens, UniProt P03956).
T1 sequence (P03956 100-469): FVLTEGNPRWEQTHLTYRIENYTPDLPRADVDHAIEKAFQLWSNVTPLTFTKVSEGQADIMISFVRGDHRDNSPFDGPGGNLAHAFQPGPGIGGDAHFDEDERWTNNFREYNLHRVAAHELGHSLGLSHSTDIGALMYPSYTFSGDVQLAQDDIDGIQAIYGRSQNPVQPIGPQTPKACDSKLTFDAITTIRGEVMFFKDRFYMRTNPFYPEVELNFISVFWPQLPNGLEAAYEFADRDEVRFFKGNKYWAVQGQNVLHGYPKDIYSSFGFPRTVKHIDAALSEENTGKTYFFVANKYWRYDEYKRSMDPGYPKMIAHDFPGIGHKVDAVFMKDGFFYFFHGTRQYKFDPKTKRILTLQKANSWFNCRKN
The experiment in a line: MMP-1 inhibition (thiopeptide or fluorescent peptide substrate assay). It is filed as biochemical.

Among the data in patent EP0934300B1, “THE PREPARATION AND USE OF ORTHO-S[…] AS MATRIX METALLOPROTEINASE AND TACE INHIBITORS” (American Cyanamid Company, priority 1996, dated 1998) are IC50 values, retold here.

In general, IC50 refers to the midpoint of a concentration-inhibition curve. A low value points to greater potency in that assay. Consider `COc1ccc(S(=O)(=O)N(Cc2ccccc2)c2c(C(=O)NO)cc(OC)nc2OC)cc1` [Example 33, 3-[Benzyl-(4-methoxy-benzenesulfonyl)-amino]-N-hydroxy-2,6-dimethoxyisonicotinamide], for which the IC50 was found to be 1230 nM.
